We go through 1 compound from patent US11279728B2, “Broad spectrum viral inhibitor” (Albert Einstein College of Medicine, priority 2017, dated 2022).

The target of the test is T1, Rattus norvegicus (residues 51-361) viperin (Rvip) (Rattus norvegicus, UniProt O70600).
T1 sequence (O70600 51-360 limits assumed): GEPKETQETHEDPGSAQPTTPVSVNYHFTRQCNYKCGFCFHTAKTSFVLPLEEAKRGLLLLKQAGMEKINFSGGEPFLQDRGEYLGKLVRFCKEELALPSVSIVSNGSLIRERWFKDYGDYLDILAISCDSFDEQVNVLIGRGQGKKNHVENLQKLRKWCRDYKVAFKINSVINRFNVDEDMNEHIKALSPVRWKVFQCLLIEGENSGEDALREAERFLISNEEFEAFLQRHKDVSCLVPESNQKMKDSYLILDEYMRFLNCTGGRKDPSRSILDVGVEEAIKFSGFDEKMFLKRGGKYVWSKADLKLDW
Kind of test: In vitro characterization of viperin (Rvip) activity: 5′dA formation / ddhCTP production. As to conditions: coincubation of 1 mM deuCTP and 1 mM deoxyCTP; 5′-dA m/z readout.

`Nc1ccn([C@H]2C[C@H](O)[C@@H](COP(=O)(O)OP(=O)(O)OP(=O)(O)O)O2)c(=O)n1` [deoxyCTP]: the “substrate for Rvip” value is recorded as “not a substrate”.
